Results from patent US20090104711A1, “FLUORESCENT MARKER COMPRISING DOUBLE BOND ESTER GROUP AND METHOD FOR MARKING AND DETECTING THE SAME” (priority 2005, published 2009).

Key:
[1] = Solubility in kerosene oil, unsaturated vs saturated esters; settings: for Solubility (%): in kerosene oil
[2] = Example 6 vs C18 saturated alkyl-chain ester (fluorescein distearate), in petroleum, FIG. 4

For fluorescein dioleate [Example 6], the “Solubility (%)” value [1] was “More than 14.7%”, the “Rate of increase in solubility of unsaturated esters (%)” value ([1]; unsaturated ester vs corresponding saturated C18 stearate, kerosene oil) was “More than 150%” and the comparison of solubility [2] was “significant difference in solubility”.

For resorufin dioleate [Example 9], the “Solubility (%)” value [1] was “More than 14.7%”.
